# Reference: US11141423B2, “Methods of screening compounds useful for treatment of a liver disease” (Icahn School of Medicine at Mount Sinai, priority 2010, dated 2021)
# Amino acid sequences for entries named in this document (tags omitted).
# UniProt P47746, whole entry: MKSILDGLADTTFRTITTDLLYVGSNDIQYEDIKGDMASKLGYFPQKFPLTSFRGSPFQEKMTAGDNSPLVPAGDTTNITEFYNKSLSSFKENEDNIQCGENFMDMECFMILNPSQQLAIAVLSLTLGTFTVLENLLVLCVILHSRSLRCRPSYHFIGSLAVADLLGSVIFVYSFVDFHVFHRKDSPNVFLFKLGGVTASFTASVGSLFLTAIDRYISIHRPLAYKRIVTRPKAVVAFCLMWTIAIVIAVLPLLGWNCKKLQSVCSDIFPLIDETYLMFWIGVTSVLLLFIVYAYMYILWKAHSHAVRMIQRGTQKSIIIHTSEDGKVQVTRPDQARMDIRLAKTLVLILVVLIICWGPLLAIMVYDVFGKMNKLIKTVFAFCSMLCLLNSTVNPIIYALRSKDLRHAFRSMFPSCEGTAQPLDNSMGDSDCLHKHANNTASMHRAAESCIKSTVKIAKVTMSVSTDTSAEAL
# UniProt P20272, whole entry: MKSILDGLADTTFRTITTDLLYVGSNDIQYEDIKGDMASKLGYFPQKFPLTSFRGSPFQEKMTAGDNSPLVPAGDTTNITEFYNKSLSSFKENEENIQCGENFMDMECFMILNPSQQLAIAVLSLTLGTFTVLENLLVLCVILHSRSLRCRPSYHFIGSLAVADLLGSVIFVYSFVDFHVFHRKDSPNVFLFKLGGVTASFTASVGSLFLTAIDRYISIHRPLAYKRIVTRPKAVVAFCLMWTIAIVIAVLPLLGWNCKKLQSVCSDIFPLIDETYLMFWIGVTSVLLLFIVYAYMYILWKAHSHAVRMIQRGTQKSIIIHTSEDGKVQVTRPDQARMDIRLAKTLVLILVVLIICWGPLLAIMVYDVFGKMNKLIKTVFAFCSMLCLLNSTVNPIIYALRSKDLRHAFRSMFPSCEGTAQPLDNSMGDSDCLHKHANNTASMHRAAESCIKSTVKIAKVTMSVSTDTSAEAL
# UniProt P25095, whole entry: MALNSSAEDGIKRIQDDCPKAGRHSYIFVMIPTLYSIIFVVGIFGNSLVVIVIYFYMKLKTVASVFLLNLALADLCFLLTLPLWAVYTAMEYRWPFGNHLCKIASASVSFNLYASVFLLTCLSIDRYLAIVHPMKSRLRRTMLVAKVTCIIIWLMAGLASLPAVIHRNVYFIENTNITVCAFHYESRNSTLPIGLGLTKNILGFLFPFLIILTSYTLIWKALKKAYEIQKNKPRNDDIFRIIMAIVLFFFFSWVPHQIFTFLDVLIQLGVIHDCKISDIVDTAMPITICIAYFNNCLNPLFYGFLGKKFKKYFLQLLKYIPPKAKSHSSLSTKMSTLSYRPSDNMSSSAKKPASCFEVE
# Assays:
# CB1R = CB1R (Mus musculus, UniProt P47746); conditions: three distinct models of chronic liver injury; cited from earlier work
# CB1R-AT1R heteromer [1] = molecular target: T1, CB1R-AT1R heteromer (Rattus norvegicus, UniProt P20272+P25095); assay: Ang II-mediated pERK in activated HSCs (eHSCs), Western blot; format: cell-based; conditions: eHSCs from ethanol treated rats, Ang II stimulation, THL pretreatment 10 or 30 minutes, pERK normalized to total ERK
# T1 construct: endogenous in cells; host or cells: primary hepatic stellate cells from ethanol-fed Sprague-Dawley rats (eHSCs)
# CB1R-AT1R heteromer [2] = molecular target: T2, CB1R-AT1R heteromer (UniProt P30556+P47746); assay: Ang II-mediated pERK in Neuro2A-AT1R cells; format: cell-based; conditions: SR141716 1 μM
# T2 construct: Neuro2A cells expressing endogenous CB1R and recombinant AT1R; expressed in transfected cells; host or cells: Neuro2A stably expressing AT1R (CB1R endogenous)
# profibrogenic genes = assay: Profibrogenic gene expression in liver of CCl4 or vehicle treated mice; format: in vivo; conditions: AM251 2 mg/kg co-administered with CGS21680, 6 hours
# Experimental: Murine model of liver fibrosis and human tissues. Wild-type C54b16 mice were treated with i.p. injections of CCl4 (2 mL/kg CCl4 mixed with mineral oil; 10% v/v) or mineral oil, 3 times a week for 8 weeks (n=5-6 per group). There were no deaths in any of the groups. […] Six hours after the injections, mice were sacrificed by CO2 narcosis. Aliquots of liver tissue (50-100 mg) were flash frozen and kept at −80° C. until RNA isolation. The tissue was minced and homogenized in TRIzol reagent, and RNA was extracted according to the manufacturer's instructions and then dissolved in sterile DEPC water and stored at −80° C. RT-PCR was performed as described:
# Real-Time Quantitative Reverse Transcription-Polymerase Chain Reaction. Total RNA was isolated from 3×10^8 HSCs using the TRIzol method (Invitrogen, Carlsbad, Calif., USA). RNA (1.0 μg) was reverse-transcribed in 20 μl of buffer containing 50 μM oligo(dT)20, 25 mM MgCl2, 0.1 M dithiothreitol, 40 U/μl RNaseOUT, and 200 U/μl SuperScript III RT for 50 min at 50° C. The reaction was stopped by incubating the samples at 85° C. for 5 min, and 40 μl of nuclease-free water was added. Real-time PCR was performed by using the Brilliant SYBR Green QPCR Master Mix. The PCR template source was either 30 ng of first-strand cDNA or purified DNA standard. Primer sequences used to amplify the desired cDNA are detailed in Table 2. […]
Compound,Fibrosis progression (CB1R),Effect on Ang II-mediated ERK phosphorylation in eHSCs (CB1R-AT1R heteromer [1]),Effect on Ang II-mediated ERK phosphorylation in eHSCs (CB1R-AT1R heteromer [1]; listed as CB1R specific antagonist),Ang II-mediated pERK blocked (CB1R-AT1R heteromer [2]),Effect on CGS-induced profibrogenic gene expression in liver (profibrogenic genes)
Cc1c(C(=O)NN2CCCCC2)nn(-c2ccc(Cl)cc2Cl)c1-c1ccc(Cl)cc1 [SR141716],inhibits fibrosis progression,prevents,prevented,> 80%,–
AM251,–,–,–,–,prevented
